# Screening results (PubChem BioAssay)
# Rows were chosen to be rich in hits. Some 1.2% of all compounds tested hit in one or more screens of this group.
# Pemphigus Ab inh – human desmoglein-3 autoantibody binding inhibition; P32926; DSG3-coupled beads, scFv-anti-DSG3-GFP binding, flow cytometry; active compounds read low; binding (percent of control), % at 10 µM; actives 0.48% (n = 310,000); AID 588358;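 active means binding more than 3 SD below its plate's average and above zero; inconclusive means below that plate limit but binding exactly zero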;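 further: hits lower antibody fragment binding to DSG3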
# TbMetRS inhib – Trypanosoma brucei MetRS inhibition; actives 0.4% (n = 360,000); purified T. brucei MetRS, ATP depletion, Kinase-Glo luminescence; inhibition, % at 11.9 µM;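 active means inhibition above a per-plate cutoff of the control wells' mean inhibition plus 3 SD, cut at about 5.5% in these data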;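 further: 0% = DMSO wells median and 100% = median of wells with control inhibitor compound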
#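 Material: T. brucei methionyl-tRNA synthetase, purified; reagent: substrates ATP, L-methionine and bulk Escherichia coli tRNA; dosing: 11.9 µM single point; timing: 15 min plus 2 h at 25 °C; detection: luminescence of leftover ATP; evaluation: % inhibition; control set: DMSO-only wells as low control; replicates: singlicate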
# UUG fidelity – modulators of yeast start codon fidelity, primary screen, whole organism, S. cerevisiae, single point, plate reader | AID 602363, 2012 | S. cerevisiae UUG-firefly luciferase reporter, luminescence/redox ratio | activity score, % at 18.7 µM | hit rate 0.13% among 350,000;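 active = replicate mean at a twofold rise or more, about +100% in these data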;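 also: firefly luciferase made from a UUG start codon reports start codon fidelity; reporter light over untreated wells divided by growth signal over untreated wells; some hits fall short of that in this replicate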
# Arrestin-AP2 inh – human beta-arrestin and AP2 interaction inhibition. FITC-arrestin peptide / GST-AP2 beads, flow cytometry; AP2 beta2 appendage carries R879A mutation. AID 504490. inhibition, % at 10 µM. actives 0.31% (n = 340,000);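 active means inhibition above a set limit, near 3 SD of compounds lacking own fluorescence, cut at about 54% in these data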;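 further: plate controls were DMSO wells for no effect and 5 µM unlabelled arrestin peptide for full effect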
#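 System: GST-AP2 R879A glutathione beads. Medium: PBS with 0.05% Tween 20 and 0.1% BSA. Also added: FITC-arrestin peptide, 50 nM. Incubation: 12 min plus 1 h, RT. Measured by: high-throughput flow cytometry of beads, ex 488, em 535 nm. Evaluation: percent drop in bead-associated FITC signal.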
# Rce1 inh – inhibitors of yeast Ras-converting enzyme | calls only | AID 2563 | actives 0.27% (n = 290,000) | yeast membranes, quenched prenylated peptide cleavage fluorescence;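 active means fall in fluorescence gain of 50% or more versus controls, with final raw signal at or below 3038400; inconclusive means same 50% fall but final raw signal above 3038400; inactive means fall in fluorescence gain under 50%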;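 further: plate controls were neutral control wells for no effect and wells lacking membranes for full effect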
# An asterisk follows results filed as active; i = inactive; ? = inconclusive; nt = no result; + = active, no number.
# Sequence of screens: Pemphigus Ab inh | TbMetRS inhib | UUG fidelity | Arrestin-AP2 inh | Rce1 inh
1) O=C(CN1CCC(NC(=O)c2ccc(Br)cc2)CC1)NCc1cccs1
→ 102 | 0 | -7 | 0 | +
2) Cc1cccc(S(=O)(=O)N2C[C@H](O)COC[C@@H]3O[C@H](CC(=O)NCc4ccncn4)CC[C@H]32)c1
→ nt | nt | -6 | nt | nt
3) Cc1ccc(NC2=Nc3ccccc3N3C2=Nc2c(c(C)nn2-c2ccccc2)C3c2ccc(O)c(O)c2)cc1 (stereo not given)
→ 91* | 0 | 10 | 7 | nt
4) Cc1nn(-c2ccccc2)c2c1C(c1ccc(O)c(O)c1)N1C(=N2)C(Nc2ccccc2)=Nc2ccccc21 (stereo not given)
→ 95 | 0 | 3 | 15 | i
5) Fc1ccc(Nc2nc(-c3ccncc3)nc3ccccc23)cc1
→ 85* | -1 | nt | 21 | i
6) O=C1c2ccccc2-c2onc3ccc(N4CCCC4)c1c23
→ 47* | -2 | nt | 24 | i
7) O=C1c2ccccc2-c2onc3ccc(NCc4ccco4)c1c23
→ 58* | -1 | -8 | 40 | i
8) CCOc1ccc2noc3c2c1C(=O)c1ccccc1-3
→ 122 | 0 | -7 | 12 | i
9) CCC(=O)N[C@@H]1CC[C@H](CC(=O)NCc2ccccc2OC)O[C@@H]1CO
→ nt | nt | -7 | nt | nt
10) C[C@@H]1CCCCO[C@@H](CN(C)Cc2ccncc2)[C@H](C)CN([C@@H](C)CO)C(=O)c2cc(NC(=O)NC3CCCCC3)ccc2O1
→ nt | nt | -3 | nt | nt
11) CCOC(=O)C1=C(Cc2ccc(C)cc2)C(=O)c2ccccc2C1=O
→ nt | nt | nt | nt | i
12) CCOC(=O)C1=C(Cc2ccc(OC)cc2)C(=O)c2ccccc2C1=O
→ 99 | -1 | -27 | 55* | nt
13) CC12CCCC(CC(=O)O)(C1)NC(=O)C2 (stereo not given)
→ 64* | -1 | -8 | -4 | nt
14) CC1(C)CC(CC(=O)O)(c2ccc(F)cc2)CCO1 (stereo not given)
→ 99 | -1 | -7 | -1 | i
15) Cc1nn(-c2ccccc2)c(C)c1/C=N/NC(=O)c1cc(-c2ccc(Br)s2)[nH]n1
→ 84* | 0 | 20 | 1 | i
16) Cc1nn(-c2ccccc2)c(C)c1-c1cc(C(=O)N/N=C/c2ccc(O)cc2)[nH]n1
→ 58* | 0 | nt | 18 | i
17) COc1cc(/C=N/NC(=O)c2cc(-c3c(C)nn(-c4ccccc4)c3C)n[nH]2)ccc1O
→ 99 | 0 | -20 | 2 | i
18) CCCCOc1ccc(Cc2c(COCC)[nH]c(=S)[nH]c2=O)cc1
→ 101 | 0 | 2 | 7 | +
19) Cc1noc(C)c1NC(=O)N[C@H]1CC[C@@H](CCNC(=O)C2CCC2)O[C@@H]1CO
→ nt | nt | -9 | nt | nt
20) O=C(Cn1cc(C(=O)c2ccco2)c2ccccc21)NC1CCCC1
→ nt | 0 | -14 | 2 | i

# Some of the entries so far, as labelled records:
[13] CC12CCCC(CC(=O)O)(C1)NC(=O)C2 (stereo not given)
  Pemphigus Ab inh: 64* | TbMetRS inhib: -1 | UUG fidelity: -8 | Arrestin-AP2 inh: -4 | Rce1 inh: nt
[14] CC1(C)CC(CC(=O)O)(c2ccc(F)cc2)CCO1 (stereo not given)
  Pemphigus Ab inh: 99 | TbMetRS inhib: -1 | UUG fidelity: -7 | Arrestin-AP2 inh: -1 | Rce1 inh: i
[15] Cc1nn(-c2ccccc2)c(C)c1/C=N/NC(=O)c1cc(-c2ccc(Br)s2)[nH]n1
  Pemphigus Ab inh: 84* | TbMetRS inhib: 0 | UUG fidelity: 20 | Arrestin-AP2 inh: 1 | Rce1 inh: i
[16] Cc1nn(-c2ccccc2)c(C)c1-c1cc(C(=O)N/N=C/c2ccc(O)cc2)[nH]n1
  Pemphigus Ab inh: 58* | TbMetRS inhib: 0 | UUG fidelity: nt | Arrestin-AP2 inh: 18 | Rce1 inh: i

# More compounds.
cpd | Compound | Pemphigus Ab inh | TbMetRS inhib | UUG fidelity | Arrestin-AP2 inh | Rce1 inh
21 | O=C(Cn1cc(C(=O)c2cccs2)c2ccccc21)NC1CCCCC1 | 45* | 1 | -26 | 35 | i
22 | C[C@H]1CN([C@@H](C)CO)C(=O)c2cc(NC(=O)CCC(F)(F)F)ccc2O[C@H]1CN(C)S(=O)(=O)c1ccccc1 | nt | nt | -9 | nt | nt
23 | Cc1cc(NC(=O)CS(=O)(=O)c2cn(Cc3cccc(F)c3)c3ccccc23)no1 | 101 | 0 | -3 | 1 | i
24 | Cc1cc(NC(=O)CS(=O)(=O)c2cn(Cc3ccc(F)cc3)c3ccccc23)no1 | -23* | -2 | -8 | -2 | i
25 | Cc1cc(=O)oc2cc(OCC(=O)OCC(=O)Nc3ccccc3Br)ccc12 | 71* | 2 | nt | 1 | i
26 | Cc1cc(=O)oc2cc(OCC(=O)Nc3ccc(S(=O)(=O)N(C)C)cc3)ccc12 | 71* | 0 | 7 | 20 | nt
27 | O=C(Cc1ccccc1)N1CC[C@H]2[C@H](CO)Nc3ccc(Br)cc3[C@H]21 | nt | nt | 11 | nt | nt
28 | COc1ccc(OC)c(CCNC(=O)CCC(=O)N2CCOc3ccc(C)cc32)c1 | 68* | -1 | 3 | -2 | i
29 | CNC(=O)C[C@@H]1CC[C@@H]2[C@@H](COc3ccc(NC(=O)c4ccc(OC)cc4)cc3C(=O)N2C)O1 | nt | nt | -5 | nt | nt
30 | CCOC(=O)c1[nH]c2ccc(OC)cc2c1NC(=O)CN1CCC2(CC1)OCCO2 | nt | -1 | -1 | 16 | +
31 | O=C(N/N=C1/C(=O)c2cccc3cccc1c23)c1ccc(Cl)cc1 | 61* | -1 | -9 | 29 | i
32 | O=Cc1c(NCc2ccc(F)cc2)c2ccccc2[nH]c1=O | 103 | -2 | -22 | 6 | i
33 | O=Cc1c(NC2CCCCC2)c2ccccc2[nH]c1=O | 74* | 0 | -7 | 14 | i
34 | C[C@@H]1CN([C@@H](C)CO)C(=O)c2cc(NC(=O)CCC(F)(F)F)ccc2O[C@@H](C)CCCCO[C@H]1CN(C)Cc1ccc2c(c1)OCO2 | nt | nt | -5 | nt | nt
35 | O=C1c2cccc(Sc3ccccc3)c2C(=O)c2c(Sc3ccccc3)cccc21 | 87 | -1 | 119* | 17 | i
36 | C[C@H]1CN([C@@H](C)CO)C(=O)c2cccc(NS(=O)(=O)c3cccs3)c2O[C@H]1CN(C)S(=O)(=O)c1ccc(F)cc1 | nt | nt | 3 | nt | nt
37 | N#Cc1c(-c2ccc(Cl)cc2)cc(-c2ccccc2)nc1SCC(=O)O | 109 | 0 | -2 | 9 | i
38 | N#Cc1c(-c2ccc(F)cc2)cc(-c2ccccc2)nc1SCC(=O)NCC(=O)O | 63* | 0 | nt | 5 | i
39 | N#Cc1ccc(OCC(=O)OCC(=O)N2CCc3ccccc32)cc1 | 101 | 0 | 0 | nt | nt
40 | CCC(=O)c1ccc(OCC(=O)OCC(=O)N2CCc3ccccc32)cc1 | 63* | 0 | -14 | -8 | i
41 | CO[C@@H]1CN(C)C(=O)c2cc(NC(=O)NC3CCCCC3)ccc2OC[C@H](C)N(C)C[C@@H]1C | nt | nt | 4 | nt | nt
42 | C=CCNC(=O)c1cc2c(=O)n3cc(C)ccc3nc2nc1NCC1CCCO1 (stereo not given) | nt | nt | nt | nt | +
43 | CCNc1nc2nc3ccc(C)cn3c(=O)c2cc1C(=O)NCC1CCCO1 (stereo not given) | 104 | -1 | nt | -14 | ?
44 | CCO[C@H]1OC(C(=O)Nc2ccccc2)=C[C@@H](c2csc3ccccc23)[C@@H]1CCCO | 101 | 0 | -14 | 1 | +
45 | CCO[C@@H]1OC(C(=O)O)=C[C@H](c2csc3ccccc23)[C@H]1CCCO | 103 | 0 | -5 | 20 | i
46 | CCc1cc(=O)oc2c(C)c(OC(C)C(=O)NC3CC(C)(C)NC(C)(C)C3)ccc12 (stereo not given) | 108 | 1 | -14 | -33 | +
47 | O=C(Nc1ccccc1O)c1cccc(S(=O)(=O)Nc2ccccc2O)c1 | 100 | 6.3* | nt | 10 | i
48 | Cc1ccccc1NS(=O)(=O)c1cccc(C(=O)Nc2cccc(C(=O)O)c2)c1 | 98 | 0 | -5 | 16 | i
49 | O=C(O)c1cccc(S(=O)(=O)Nc2ccccc2C(=O)NCCc2ccccc2)c1 | 17* | -1 | 1 | 4 | i
50 | C[C@@H]1CCCCO[C@@H](CN(C)C(=O)NC2CCCCC2)[C@H](C)CN([C@@H](C)CO)C(=O)c2cc(NC(=O)Nc3ccc4c(c3)OCO4)ccc2O1 | nt | nt | -8 | nt | nt
